# Reference: ChEMBL document CHEMBL4196023, “Cyclic peptide inhibitors of lysine-specific demethylase 1 with improved potency identified by alanine scanning mutagenesis” (Eur J Med Chem, 2018)
# Sequences of proteins named here, by UniProt entry; tags and fusion partners are left off.
# UniProt P27338, whole entry: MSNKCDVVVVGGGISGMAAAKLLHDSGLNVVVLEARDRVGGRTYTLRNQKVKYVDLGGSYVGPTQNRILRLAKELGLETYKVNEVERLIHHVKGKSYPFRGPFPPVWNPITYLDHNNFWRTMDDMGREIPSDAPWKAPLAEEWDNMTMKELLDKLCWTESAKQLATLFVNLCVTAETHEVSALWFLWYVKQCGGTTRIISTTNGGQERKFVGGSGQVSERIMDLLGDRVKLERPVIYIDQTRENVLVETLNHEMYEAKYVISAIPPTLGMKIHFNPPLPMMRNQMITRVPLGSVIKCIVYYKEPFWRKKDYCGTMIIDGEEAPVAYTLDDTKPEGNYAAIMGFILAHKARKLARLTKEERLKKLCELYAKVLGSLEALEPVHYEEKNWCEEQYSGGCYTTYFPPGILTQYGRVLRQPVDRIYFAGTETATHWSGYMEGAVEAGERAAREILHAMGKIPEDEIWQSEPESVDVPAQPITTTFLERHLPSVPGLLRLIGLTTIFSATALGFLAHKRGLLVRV
# UniProt Q9UKL0, whole entry, looked up: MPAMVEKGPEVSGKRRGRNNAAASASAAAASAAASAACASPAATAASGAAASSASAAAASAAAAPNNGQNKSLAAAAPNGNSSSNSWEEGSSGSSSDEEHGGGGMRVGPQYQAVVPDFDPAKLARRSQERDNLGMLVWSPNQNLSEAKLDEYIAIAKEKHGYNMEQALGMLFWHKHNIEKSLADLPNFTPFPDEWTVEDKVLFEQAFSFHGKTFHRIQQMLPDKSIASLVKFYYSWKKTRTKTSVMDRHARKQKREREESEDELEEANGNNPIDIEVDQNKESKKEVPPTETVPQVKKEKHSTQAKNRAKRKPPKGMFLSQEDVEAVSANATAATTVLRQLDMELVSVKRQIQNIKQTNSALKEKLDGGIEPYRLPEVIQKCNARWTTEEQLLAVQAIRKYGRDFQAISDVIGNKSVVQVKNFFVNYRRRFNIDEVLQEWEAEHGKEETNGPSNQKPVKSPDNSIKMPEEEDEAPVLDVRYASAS
# UniProt P21397, whole entry: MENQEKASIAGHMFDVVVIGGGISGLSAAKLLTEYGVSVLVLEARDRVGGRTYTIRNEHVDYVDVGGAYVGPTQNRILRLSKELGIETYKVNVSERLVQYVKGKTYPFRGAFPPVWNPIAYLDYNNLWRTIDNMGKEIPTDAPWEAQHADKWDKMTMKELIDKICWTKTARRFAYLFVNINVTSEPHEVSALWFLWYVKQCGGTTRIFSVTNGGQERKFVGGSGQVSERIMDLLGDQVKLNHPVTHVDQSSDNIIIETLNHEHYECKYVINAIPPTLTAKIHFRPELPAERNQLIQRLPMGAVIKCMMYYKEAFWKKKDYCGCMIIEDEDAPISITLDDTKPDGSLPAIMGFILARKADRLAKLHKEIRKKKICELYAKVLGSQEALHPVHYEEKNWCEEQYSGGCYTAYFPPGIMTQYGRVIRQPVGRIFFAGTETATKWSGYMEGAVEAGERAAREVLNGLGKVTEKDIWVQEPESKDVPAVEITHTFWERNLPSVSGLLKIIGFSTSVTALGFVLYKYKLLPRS
# Active and inactive are the calls of the source. The calls are words filed in the database; no cut-off is given here.
# Tests used:
# [1] = target: Amine oxidase [flavin-containing] B (Homo sapiens, UniProt P27338); test: Inhibition of MAO-B (unknown origin) by luminescence assay; assay type: ADME
# [2] = target: LSD1/CoREST complex (Homo sapiens) (UniProt O60341+Q9UKL0); test: Inhibition of recombinant human LSD1/CoREST at 500 nM preincubated for 5 mins followed by ART-(N,N-dimethyl-K)-QTARKSTGGKAPRKQLA substrate addition measured after 25 mins by fluorescence assay relative to control
# [3] = target: Lysine-specific histone demethylase 1A (Homo sapiens) (UniProt O60341); test: Inhibition of LSD1 in human K562 cells assessed as increase in H3K4me2 expression at 10 uM after 48 hrs by Western lot analysis relative to control; assay type: cell-based
# MCF7 = test: Antiproliferative activity against human MCF7 cells after 72 hrs by MTS assay; assay type: functional, cell-based; details: MCF7, 72 h
# Calu-6 = test: Antiproliferative activity against human Calu6 cells after 72 hrs by MTS assay; assay type: functional, cell-based; details: Calu-6, 72 h
# [4] = target: Amine oxidase [flavin-containing] A (Homo sapiens, UniProt P21397); test: Inhibition of MAO-A (unknown origin) by luminescence assay; assay type: ADME
# [5] = target: Lysine-specific histone demethylase 1A (Homo sapiens) (UniProt O60341); test: Inhibition of LSD1 in human Calu6 cells assessed as increase in H3K4me2 expression at 10 uM after 48 hrs by Western lot analysis relative to control; assay type: cell-based
# LSD1/CoREST complex = LSD1/CoREST complex (Homo sapiens, UniProt O60341); test: Inhibition of recombinant human LSD1/CoREST preincubated for 5 mins followed by ART-(N,N-dimethyl-K)-QTARKSTGGKAPRKQLA substrate addition measured after 25 mins by fluorescence assay; assay type: protein-complex assay
# K562 = test: Antiproliferative activity against human K562 cells after 72 hrs by MTS assay; assay type: functional, cell-based; details: K562, 72 h
# [6] = target: Lysine-specific histone demethylase 1A (Homo sapiens) (UniProt O60341); test: Inhibition of LSD1 in human NCI-H526 cells assessed as increase in H3K4me2 marks at promoter of IGFBP2 at 100 uM after 48 hrs by ChIP-qPCr method; assay type: cell-based
# In short: (§1)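 NCI-H526 small cell lung carcinoma cells treated 48 h at 100 µM alongside an untreated control. Cells formaldehyde cross-linked, nuclei sonicated and chromatin enzymatically digested. IP with H3K4me2 antibody (normal rabbit IgG as negative control) on protein G magnetic beads. Purified DNA quantified by TaqMan qPCR at promoter regions; fold change by comparative CT (Livak). SD from three qPCR wells.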
# [7] = target: Lysine-specific histone demethylase 1A (Homo sapiens) (UniProt O60341); test: Inhibition of LSD1 in human NCI-H526 cells assessed as increase in H3K4me2 marks at promoter of FEZ1 at 100 uM after 48 hrs by ChIP-qPCr method; assay type: cell-based; in short: as §1
IC50 [1],fold change (FC) [3],IC50 (MCF7),IC50 (Calu-6),IC50 [4],Activity [5],IC50 (K562),inhibition [6],inhibition [7],SMILES,inhibition [2],IC50 (LSD1/CoREST complex)
> 100 µM,2.4,566 µM,586 µM,> 100 µM,inactive,364 µM,,,CSCC[C@H](NC(=O)[C@H](C)NC(=O)[C@H](CCCNC(=N)N)NC(=O)[C@H](C)N)C(=O)N[C@H]1CCCCNC(=O)CC[C@@H](C(=O)N[C@H](C(=O)NCC(=O)NCC(=O)N[C@@H](CCCCN)C(=O)N[C@@H](C)C(=O)N2CCC[C@H]2C(=O)N[C@@H](CCCNC(=N)N)C(=O)N[C@@H](CCCCN)C(=O)N[C@@H](CCC(N)=O)C(=O)N[C@@H](CC(C)C)C(=O)N[C@@H](C)C(N)=O)[C@@H](C)O)NC(=O)[C@H](CCCCN)NC(=O)[C@H](CCCNC(=N)N)NC(=O)[C@H](C)NC(=O)[C@H]([C@@H](C)O)NC1=O,99.2%,0.136 µM
,2 to 17,168 µM,93 µM,,,359 µM,inactive,inactive,CSCC[C@H](NC(=O)[C@@H](NC(=O)[C@H](CCCNC(=N)N)NC(=O)[C@H](C)N)[C@@H](C)O)C(=O)N[C@H]1CCCCNC(=O)CC[C@@H](C(=O)N[C@@H](C)C(=O)NCC(=O)NCC(=O)N[C@@H](CCCCN)C(=O)N[C@@H](C)C(=O)N2CCC[C@H]2C(=O)N[C@@H](CCCNC(=N)N)C(=O)N[C@@H](CCCCN)C(=O)N[C@@H](CCC(N)=O)C(=O)N[C@@H](CC(C)C)C(=O)N[C@@H](C)C(N)=O)NC(=O)[C@H](CCCCN)NC(=O)[C@H](CCCNC(=N)N)NC(=O)[C@H](C)NC(=O)[C@H]([C@@H](C)O)NC1=O,,0.107 µM
